The target of this assay is HLA-DRB1*15:01 (Homo sapiens, UniProt P01903+P01911). Put plainly: biochemical. The format is binding.

Amino acid sequences for entries named in this document (tags omitted). Residues count along the entry.
UniProt P01903, 26-254: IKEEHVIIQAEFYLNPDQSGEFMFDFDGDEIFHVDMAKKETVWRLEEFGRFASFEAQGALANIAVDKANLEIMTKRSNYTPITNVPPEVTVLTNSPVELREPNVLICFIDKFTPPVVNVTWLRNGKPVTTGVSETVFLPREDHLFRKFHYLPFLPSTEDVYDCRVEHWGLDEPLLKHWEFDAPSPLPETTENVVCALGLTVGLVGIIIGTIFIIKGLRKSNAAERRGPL
UniProt P01911, 30-266: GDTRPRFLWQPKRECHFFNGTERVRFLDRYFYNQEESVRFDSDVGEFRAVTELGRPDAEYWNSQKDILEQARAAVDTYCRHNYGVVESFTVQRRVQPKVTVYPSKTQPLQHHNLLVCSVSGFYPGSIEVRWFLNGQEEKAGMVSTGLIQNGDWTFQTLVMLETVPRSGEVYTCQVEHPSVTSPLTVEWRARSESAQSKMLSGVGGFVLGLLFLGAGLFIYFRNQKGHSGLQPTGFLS

Consider 1 compound from paper PMC9363231, “High‐resolution analysis of individual spike peptide‐specific CD4 ^+ T‐cell responses in vaccine recipients and COVID‐19 patients” (Clinical & Translational Immunology, 2022).

For `CC[C@H](C)[C@H](NC(=O)[C@H](CCCNC(=N)N)NC(=O)[C@H](CCCCN)NC(=O)[C@H](CCCNC(=N)N)NC(=O)[C@H](CC(N)=O)NC(=O)[C@H](Cc1c[nH]c2ccccc12)NC(=O)[C@H](C)NC(=O)[C@@H](N)Cc1ccc(O)cc1)C(=O)N[C@@H](CO)C(=O)N[C@@H](CC(N)=O)C(=O)N[C@@H](CS)C(=O)N[C@H](C(=O)N[C@@H](C)C(=O)N[C@@H](CC(=O)O)C(=O)N[C@@H](Cc1ccc(O)cc1)C(=O)O)C(C)C` [compound 71], inhibition was half-maximal at 851 nM (IC50).

As a reminder, the IC50 is the concentration at which inhibition is half-maximal. A low value points to greater potency in that assay.
